Test results published in patent US20230258569A1, “REAGENT FOR MEASURING SKIN SENSITIZATION, COMPOUND, AND METHOD FOR MEASURING SKIN SENSITIZATION” (FUJIFILM Corporation, priority 2020, published 2023).

Assay: Reactivity (% depletion) of nucleophilic reagent Compound 1 with test substance, HPLC; skin sensitization prediction
Settings: FIG. 3, FIG. 4

## CCOS(=O)(=O)OCC [Diethyl sulfate]
  reactivity of Compound 1 in comparison with GSH-NBD: higher reactivity
  reactivity of Compound 1 in comparison with NAC and NAL in ADRA: higher reactivity
  reactivity of Compound 1 in comparison with NAC-amide: same level of reactivity
  reactivity of Compound 1 in comparison with the cysteine peptide and the lysine peptide in DPRA: lower reactivity

## C=CCCCCCCCCC=O [Compound 10-Undecenal, 10-Undecenal]
  reactivity of Compound 1 in comparison with GSH-NBD: higher reactivity
  reactivity of Compound 1 in comparison with NAC and NAL in ADRA: higher reactivity
  reactivity of Compound 1 in comparison with NAC-amide: higher reactivity
  reactivity of Compound 1 in comparison with the cysteine peptide and the lysine peptide in DPRA: higher reactivity

Structures can show the parent of a compound that is named as a salt.
